Laboratory results taken from patent publication US10822352B2, “Aryl, heteroaryl, and heterocyclic compounds for treatment of medical disorders” (Achillion Pharmaceuticals, Inc., priority 2015, dated 2020).
Read-outs that look alike come from different tables or passages of the source.

Protein sequences, listed by entry. Tags and fused reporters are not part of them. Residues count along the entry.
UniProt P00746, 26-253: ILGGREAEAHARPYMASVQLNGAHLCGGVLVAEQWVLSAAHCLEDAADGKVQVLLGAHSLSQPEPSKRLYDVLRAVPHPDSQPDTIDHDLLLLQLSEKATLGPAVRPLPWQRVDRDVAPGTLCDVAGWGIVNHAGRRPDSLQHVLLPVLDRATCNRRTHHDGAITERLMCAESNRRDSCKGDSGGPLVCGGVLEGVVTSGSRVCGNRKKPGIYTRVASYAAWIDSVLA

Molecular target: Human Factor D (Homo sapiens (Human), UniProt P00746)
Assay: Human Factor D Assay
Assay type: biochemical
Procedure: Human Factor D (purified from human serum, Complement Technology, Inc.) at 80 nM final concentration was incubated with test compound at various concentrations for 5 minutes at room temperature in 50 mM Tris, 1M NaCl, pH 7.5. A synthetic substrate Z-L-Lys-SBzl and DTNB (Ellman's reagent) are added to final concentrations of 100 μM each. […] IC50 values are calculated by nonlinear regression of complement Factor D reaction rates as a function of test compound concentration.

[1] = Human Factor D 80 nM, substrate Z-L-Lys-SBzl, read-out: IC50

SMILES	IC50	IC50 [1]
CC(=O)c1nn(CC(=O)N2CC3CC2(C(=O)Nc2cccc(Br)n2)C3)c2ccc(-c3cnc4cc(C)nn4c3)cc12 [Compound 689, 2-(2-(3-Acetyl-5-(2-methylpyrazolo[1,5-a]pyrimidin-6-yl)-1H-indazol-1-yl)acetyl)-N-(6-bromopyridin-2-yl)-2-azabicyclo[2.1.1]hexane-1-carboxamide]	< 1000 nM	
CC(=O)c1cn(CC(=O)N2C[C@H](F)C[C@H]2C(=O)Nc2cccc(OCc3ccccc3)n2)c2ccc(-c3ccnnc3)cc12 [Compound 60, (2S,4R)-1-(2-(3-acetyl-5-(pyridazin-4-yl)-1H-indol-1-yl)acetyl)-N-(6-(benzyloxy)pyridin-2-yl)-4-fluoropyrrolidine-2-carboxamide]		1000 to 10000 nM
NC(=O)c1nn(CC(=O)N2C[C@H](F)C[C@H]2C(=O)Nc2cncc(Br)c2)c2ccc(-c3ccnnc3)cc12 [Compound 90, 1-(2-((2S,4R)-2-(5-bromopyridin-3-ylcarbamoyl)-4-fluoropyrrolidin-1-yl)-2-oxoethyl)-5-(pyridazin-4-yl)-1H-indazole-3-carboxamide]		1000 to 10000 nM
CC(=O)c1cn(CC(=O)N2C[C@H](F)C[C@H]2C(=O)Nc2cc(C)nn2-c2ccccc2F)c2ccc(-c3ccnnc3)cc12 [Compound 160, (2S,4R)-1-(2-(3-acetyl-5-(pyridazin-4-yl)-1H-indol-1-yl)acetyl)-4-fluoro-N-(1-(2-fluorophenyl)-3-methyl-1H-pyrazol-5-yl)pyrrolidine-2-carboxamide]		1000 to 10000 nM
